From article PMC3627225 (Journal of medicinal chemistry, 2013)

Experiments:
[1] = target: recombinant HCV NS5BCΔ21 (genotype 1b) (Hepatitis C virus genotype 1b, UniProt O92972); conditions: logP by QikProp
[2] = tested on: HCV genotype 1b subgenomic replicon (Huh 5-2)

CN1c2c(C(=O)Nc3ccc(NS(C)(=O)=O)cc3)nn(-c3ccc(F)cc3)c2-c2ccccc2S1(=O)=O [4c, 1-(4-Fluorophenyl)-4-methyl-N-{4-[(methylsulfonyl)amino]phenyl}-1,4-dihydropyrazolo[4,3-c][1,2]benzothiazine-3-carboxamide 5,5-dioxide]
LLE (IC50) = pIC50 – predicted logP [1]: 3.11
SI (ratio of CC50 to EC50) [2]: >10
